{
  "source": "patent US20050002900A1",
  "about": "“Method of treating estrogen responsive breast cancer” (priority 2001, published 2005)",
  "key": {"aromatase mRNA": {"system": "aromatase mRNA", "assay": "RT-PCR of aromatase mRNA in cultured adipocytes", "type": "cell-based, human", "details": "interferon alone, endogenous expression, FIG. 3", "description": "(§1) Human subcutaneous cultured adipocytes and preadipocytes, catalog nos. SP-1012, SP-1024, SP-1096, SP-75, or SP-25 were purchased from Zen-Bio, Inc. (Research Triangle Park, N.C.) and cultured according to the manufacturer's instructions.\nAdipocyte cultures were treated with IL-1-β, IFN-γ, TNF-α, and combinations of IL-1-β and IFN-γ and TNF-α and IFN-γ. Consequently, total RNA from cultured adipocytes was isolated using conventional methods. The reverse transcriptase polymerase chain reaction (RT-PCR) was performed using aromatase specific primers. The amplified aromatase cDNA fragments produced by RT-PCR were separated on an agarose gel. As shown in the FIG. 2, IL-1β and TNF-α alone induced transcription of aromatase mRNA compared to untreated control. However, the administration of IFN-γ inhibits the transcription of aromatase mRNA when given together with IL-1β or TNFα. […] The estradiol production by the cells is shown as pikograms/ml (pg/ml) below the photograph of the gel showing the aromatase mRNA levels.\n(§2) The isolated human adipocytes were also treated with different interferon family members: IFN-α, -β, and -γ."}, "human adipocytes": {"system": "human adipocytes", "assay": "Estradiol production by cultured human adipocytes (Active Estradiol EIA kit)", "type": "cell-based", "details": "interferon alone, FIG. 3", "description": "as §1\nThe culture medium of the preadipocytes was supplemented with 0.1 μg/ml IFN-γ and increasing concentrations of either TNF-α or TNF-β as shown in FIG. 1. Estradiol concentrations were measured using the Active™ Estradiol EIA kit according to the manufacturer's instructions (catalog no. DSL-10-4300, Diagnostic Systems Laboratories, Inc., Webster, Tex.).\nas §2"}},
  "data": [
    {"substance": "IFN-β: interferon family member", "values": [
      {"measurement": "expression of aromatase mRNA in human adipocytes", "setting": "aromatase mRNA", "value": "significantly increased"},
      {"measurement": "estradiol production increase upon interferon induction", "setting": "human adipocytes", "value": "about 16 fold"}
    ]}
  ]
}
